{
  "sequences": {"note": "Amino acid sequences for entries named in this document (tags omitted). A change or cut given only in a name is not applied to a line headed by its entry.", "UniProt P34914": "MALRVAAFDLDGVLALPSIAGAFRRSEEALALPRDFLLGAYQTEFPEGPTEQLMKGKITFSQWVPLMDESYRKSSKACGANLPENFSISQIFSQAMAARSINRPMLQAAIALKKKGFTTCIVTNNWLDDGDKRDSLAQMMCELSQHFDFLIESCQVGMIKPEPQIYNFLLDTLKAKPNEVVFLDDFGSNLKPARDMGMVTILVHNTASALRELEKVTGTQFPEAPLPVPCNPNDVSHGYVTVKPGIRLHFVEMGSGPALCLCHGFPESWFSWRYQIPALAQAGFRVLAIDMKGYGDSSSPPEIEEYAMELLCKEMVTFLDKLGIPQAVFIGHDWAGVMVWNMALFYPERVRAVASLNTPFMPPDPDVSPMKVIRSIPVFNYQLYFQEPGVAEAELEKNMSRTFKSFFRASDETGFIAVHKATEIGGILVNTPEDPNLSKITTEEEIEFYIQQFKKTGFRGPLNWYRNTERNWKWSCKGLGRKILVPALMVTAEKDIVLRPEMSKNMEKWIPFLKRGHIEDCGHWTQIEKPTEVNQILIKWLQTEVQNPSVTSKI"},
  "source": "ChEMBL document CHEMBL4840312",
  "about": "“Discovery of memantyl urea derivatives as potent soluble epoxide hydrolase inhibitors against lipopolysaccharide-induced sepsis” (Eur J Med Chem, 2021)",
  "target": "Bifunctional epoxide hydrolase 2 (Mus musculus, UniProt P34914)",
  "data": [
    {"smiles": "CC(=O)N1CCC(NC(=O)NC23CC4CC(CC(C4)C2)C3)CC1", "note": "[AR9281]", "values": [
      {"measurement": "IC50", "value": 1.7, "unit": "nM"}
    ]}
  ]
}
